Only a part is listed here, and it is no random draw. Records with an inconclusive call do not appear. Active and inactive are the calls of the source. Unless noted, calls come from the whole dose curve; as a rule, active = well fitted curve in the direction sought with a large enough effect in the repeat runs; inconclusive = weak or mixed curves; inactive = no such curve, though single readings can be large; an effect the other way counts as inactive or inconclusive.
Tests used:
[1] = qHTS assay for small molecule agonists of the p53 signaling pathway (AID 651631; calls by dose curve; note: nearly all actives have a fitted effect of over 15% in size); settings: HCT-116 p53RE-bla reporter, beta-lactamase FRET ratio, 16 h
In short: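 We treat p53RE-bla HCT-116 cells with compounds for 16 h at 37 °C, add LiveBLAzer B/G FRET substrate for 2 h at room temperature, and measure fluorescence intensity.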

[2] = qHTS assay for small molecules that induce genotoxicity in human embryonic kidney cells expressing luciferase-tagged ATAD5 (AID 651632); settings: HEK293T ATAD5-luciferase induction, 16 h; series mostly up to 83.3 µM; note: nearly all actives have a fitted effect of over 15% in size
In short: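 DMSO vehicle served as the control. HEK293T reporter cells, 16 hr at 37C, then 30 min Amplite at room temperature; ATAD5 induction is measured as luciferase activity.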

[3] = qHTS assay for small molecules that induce genotoxicity in human embryonic kidney cells expressing luciferase-tagged ATAD5 - cell viability (AID 651634; calls by dose curve; note: nearly all actives have a fitted effect of over 25% in size); settings: HEK293T ATAD5-luc cells viability, CellTiter-Fluor, 15.5 h
In short: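 Here HEK293T cells with the ATAD5 luciferase reporter are incubated with test compounds for 15.5 hr, and cytotoxicity is then gauged by measuring protease activity in live cells using fluorescence.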

[4] = qHTS assay to test for compound auto fluorescence at 590 nm (red) in HepG2 cells (AID 720674); settings: HepG2 autofluorescence, red 540/590 nm, 1 h
In short: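 1 hr compound incubation on HepG2 cells, 37 C, 5% CO2; plate read ex 540 nm / em 590 nm; intensities reported as Rose Bengal sodium equivalents.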

[5] = qHTS assay to test for compound auto fluorescence at 460 nm (blue) in HEK293 cells (AID 720678); settings: blue autofluorescence 405/460 nm
In short: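 Cells were seeded and left to adhere for 4-5 hr at 37C. Compounds were then pin-transferred. After an overnight incubation at 37C under 5% CO2, intrinsic fluorescence at 405/460 nm was measured and referenced to triamterene.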

[6] = qHTS assay to test for compound auto fluorescence at 535 nm (green) in HEK293 cells (AID 720680); settings: green autofluorescence 485/535 nm
[7] = qHTS assay to test for compound auto fluorescence at 535 nm (green) in HEK293 cell free culture (AID 720682); settings: cell-free medium, green autofluorescence 485/535 nm, hits give high values
In short: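 Green-channel intensity (Ex/Em 485/535 nm) was recorded from compound-treated wells containing only DMEM with 10% FBS. Fluorescein provided the equivalency standard.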

[8] = qHTS assay to test for compound auto fluorescence at 590 nm (red) in HEK293 cell free culture (AID 720683); settings: cell-free medium autofluorescence, Ex540/Em590 red
In short: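 Red-channel autofluorescence of compounds in culture medium (DMEM, 10% FBS), no cells, measured at 540/590 nm. Rose Bengal sodium is the reference fluorophore for equivalence.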

[9] = qHTS assay to test for compound auto fluorescence at 590 nm (red) in HepG2 cell free culture (AID 720684); settings: cell-free medium autofluorescence, red 540/590 nm
In short: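 Cell-free; medium MEM + 10% FBS; compound or DMSO added by pintool; read Ex 540/Em 590 nm; Rose Bengal sodium as red reference fluorophore.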

[10] = qHTS assay for small molecule disruptors of the mitochondrial membrane potential (AID 720635); settings: HepG2 mitochondrial membrane potential, Mito-MPS dye ratio; series mostly up to 83.2 µM
In short: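 Mitochondrial membrane potential tracked with Mito-MPS dye, red aggregates (ex 540/em 590 nm) against green monomers (ex 490/em 535 nm). Compound treatment 1 hr at 37C, dye 30 min in HepG2.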
% is set by controls: 0 for no effect and ±100 for the full control effect.

CCOP(=O)(CC)OCC
inactive: activation ([1]; at 73.3 µM (top of the series)) 2.4% | Potency [2] | activity, negative = cytotoxicity ([3]; at 83.3 µM (top of the series)) 11.9% | fluorescence, relative to Rose Bengal ([4]; at 91.3 µM (top of the series)) 0.0813% | fluorescence, % of triamterene ([5]; at 91.3 µM (top of the series)) 0.007% | fluorescence, % of fluorescein ([6]; at 91.3 µM (top of the series)) 0.193% | activity change ([7]; at 91.3 µM (top of the series)) 0.116% | fluorescence, % of fluorescent control ([8]; at 91.3 µM (top of the series)) -0.456% | fluorescence, % of Rose Bengal ([9]; at 91.3 µM (top of the series)) -0.144%

OCCSCCO
inactive: activation ([1]; at 73.3 µM (top of the series)) 2.05% | activation ([1]; at 95.1 µM (top of the series)) -2.27% | Potency [2] | activity, negative = cytotoxicity ([3]; at 83.3 µM (top of the series)) 7.38% | activity, negative = cytotoxicity ([3]; at 95.3 µM (top of the series)) 17.7% | Potency [10] | fluorescence, relative to Rose Bengal ([4]; at 46 µM (top of the series)) -0.311% | fluorescence, relative to Rose Bengal ([4]; at 95.7 µM (top of the series)) -0.148% | fluorescence, % of triamterene ([5]; at 46 µM (top of the series)) -0.0294% | fluorescence, % of triamterene ([5]; at 95.7 µM (top of the series)) -0.0061% | activity change ([7]; at 46 µM (top of the series)) -0.0167% | activity change ([7]; at 95.7 µM (top of the series)) 0.0085% | fluorescence, % of fluorescent control ([8]; at 46 µM (top of the series)) -0.7% | fluorescence, % of fluorescent control ([8]; at 95.7 µM (top of the series)) 0.0963% | fluorescence, % of Rose Bengal ([9]; at 46 µM (top of the series)) -0.0211% | fluorescence, % of Rose Bengal ([9]; at 95.7 µM (top of the series)) -0.2%

CN(C)CCS
inactive: Potency [2] | activity, negative = cytotoxicity ([3]; at 83.3 µM (top of the series)) 7.5% | Potency [10] | fluorescence, relative to Rose Bengal ([4]; at 46 µM (top of the series)) -0.756% | fluorescence, % of triamterene ([5]; at 46 µM (top of the series)) 0.0518% | fluorescence, % of fluorescein ([6]; at 46 µM (top of the series)) 0.148% | activity change ([7]; at 46 µM (top of the series)) -0.091% | fluorescence, % of fluorescent control ([8]; at 46 µM (top of the series)) -0.672% | fluorescence, % of Rose Bengal ([9]; at 46 µM (top of the series)) -0.0407%

C/C1=C2N=C(/C=C3N=C(/C(C)=C4\[N-][C@@](C)([C@@H]5N=C1[C@](C)(CCC(=O)NC[C@@H](C)OP(=O)([O-])O[C@H]1[C@@H](O)[C@@H](n6cnc7cc(C)c(C)cc76)O[C@@H]1CO)[C@H]5CC(N)=O)[C@@](C)(CC(N)=O)[C@@H]4CCC(N)=O)[C@@](C)(CC(N)=O)[C@@H]\3CCC(N)=O)C(C)(C)[C@@H]/2CCC(N)=O.[C-]#N.[Co+3]
inactive: activity, negative = cytotoxicity ([3]; at 39.1 µM (top of the series)) -7.18% | Potency [10] | fluorescence, relative to Rose Bengal ([4]; at 18.6 µM (top of the series)) 0.536% | fluorescence, % of triamterene ([5]; at 18.6 µM (top of the series)) -0.154% | fluorescence, % of fluorescein ([6]; at 18.6 µM (top of the series)) -0.0165% | activity change ([7]; at 18.6 µM (top of the series)) -0.0523% | fluorescence, % of fluorescent control ([8]; at 18.6 µM (top of the series)) -0.318% | fluorescence, % of Rose Bengal ([9]; at 18.6 µM (top of the series)) -0.255%

[NH4+].[O-][Cl+3]([O-])([O-])[O-]
inactive: Potency [2] | activity, negative = cytotoxicity ([3]; at 83.3 µM (top of the series)) 11.4% | activity, negative = cytotoxicity ([3]; at 95.3 µM (top of the series)) -17% | Potency [10] | fluorescence, relative to Rose Bengal ([4]; at 91.3 µM (top of the series)) -0.0472% | fluorescence, relative to Rose Bengal ([4]; at 95.7 µM (top of the series)) 0.0554% | fluorescence, % of triamterene ([5]; at 91.3 µM (top of the series)) 0.102% | fluorescence, % of triamterene ([5]; at 95.7 µM (top of the series)) -0.0429% | fluorescence, % of fluorescein ([6]; at 91.3 µM (top of the series)) -0.0309% | fluorescence, % of fluorescein ([6]; at 95.7 µM (top of the series)) 0.03% | activity change ([7]; at 91.3 µM (top of the series)) -0.0178% | activity change ([7]; at 95.7 µM (top of the series)) -0.0396% | fluorescence, % of fluorescent control ([8]; at 91.3 µM (top of the series)) -0.0111% | fluorescence, % of fluorescent control ([8]; at 95.7 µM (top of the series)) 0.0326% | fluorescence, % of Rose Bengal ([9]; at 91.3 µM (top of the series)) 0.0799% | fluorescence, % of Rose Bengal ([9]; at 95.7 µM (top of the series)) -0.0828%

COP(=S)(Cl)OC
inactive: Potency [10]

Reference: PubChem BioAssay (Tox21)
